Reference: paper PMC9921063 (Molecules, 2023)

Sequences of proteins named here, by UniProt entry; tags and fusion partners are left off. Residues count along the entry.
UniProt O42275, 24-633: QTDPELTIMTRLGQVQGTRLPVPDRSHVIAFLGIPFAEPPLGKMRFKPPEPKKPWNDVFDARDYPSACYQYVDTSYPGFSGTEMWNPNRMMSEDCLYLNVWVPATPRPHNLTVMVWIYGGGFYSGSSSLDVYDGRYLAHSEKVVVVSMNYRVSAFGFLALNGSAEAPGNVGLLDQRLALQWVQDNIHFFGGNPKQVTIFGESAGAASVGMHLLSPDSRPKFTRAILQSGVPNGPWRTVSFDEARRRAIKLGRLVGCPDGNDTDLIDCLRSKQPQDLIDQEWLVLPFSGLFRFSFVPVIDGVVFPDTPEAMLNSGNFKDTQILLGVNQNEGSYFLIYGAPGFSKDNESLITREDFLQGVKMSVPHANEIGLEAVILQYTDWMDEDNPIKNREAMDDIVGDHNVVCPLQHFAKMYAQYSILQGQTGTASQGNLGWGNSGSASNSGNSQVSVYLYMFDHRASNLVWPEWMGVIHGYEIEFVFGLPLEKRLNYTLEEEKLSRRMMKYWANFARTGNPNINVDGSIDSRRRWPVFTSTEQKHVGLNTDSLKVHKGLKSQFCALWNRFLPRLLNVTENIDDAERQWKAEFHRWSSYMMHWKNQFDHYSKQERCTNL

Target: electric eel AChE (Electrophorus electricus, UniProt O42275)
Format: biochemical
Details: mean ± S.D.
Method: According to the Ellman et al. published spectrophotometric method of electric eel AChE [47], AChEI activity was measured. Acetylthiocholine iodide (ATCI) was used as the reaction’s substrate, and the antiacetylcholinesterase activity was measured using 5,5’-Dithiobis-(2-nitrobenzoic acid) (DTNB).

**Q.** How did the “AChEI IC50” value turn out when “5,6-Dimethyl-[1,3-(2,3,4,5,6-pentamethyl-2,4,6-trimethyl)-benzimidazol-2-ylidene](p-cymene) ruthenium(II) chloride [Compound 3a]” was run?
**A.** 15.05 ± 2.2 µM mL^−1

**Q.** For “5,6-Dimethyl-[1,3-(2,3,4,5,6-pentamethyl-2,4,6-trimethyl)-benzimidazol-2-ylidene](p-cymene) ruthenium(II) chloride [Compound 3b]”, which “AChEI IC50” value is on record?
**A.** 2.52 ± 3.4 µM mL^−1

**Q.** “5,6-Dimethyl-[1,3-(3,5)dimethyl-4-methyl)-benzimidazol-2-ylidene](p-cymene) ruthenium(II) chloride [Compound 3d]” was tested. Which “AChEI IC50” value did it give?
**A.** 5.06 ± 0.8 µM mL^−1

**Q.** For “5,6-Dimethyl-[1,3-(4-(tert-butyl)-4-methyl)-benzimidazol-2-ylidene] (p-cymene) ruthenium (II) chloride [Compound 3c]”, which “AChEI IC50” value is on record?
**A.** 11.95 ± 1.6 µM mL^−1
